Rce1 inhib = blocks yeast Ras-converting enzyme. Q03530. yeast membranes, quenched prenylated peptide cleavage fluorescence. calls only. 290,000 tested, 0.27% active;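 active = fall in fluorescence gain of 50% or more versus controls, with final raw signal at or below 3038400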;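 also: plate controls were neutral control wells for no effect and wells lacking membranes for full effect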
Tb MetRS inh = Trypanosoma brucei MetRS inhibition. purified T. brucei MetRS, ATP depletion, Kinase-Glo luminescence. inhibition, % at 11.9 µM. 360,000 tested, 0.4% active. AID 624268;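 active = inhibition above a per-plate cutoff of the control wells' mean inhibition plus 3 SD, cut at about 5.5% in these data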;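 also: 0% = DMSO wells median and 100% = median of wells with control inhibitor compound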
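Material: parasite MetRS enzyme / Replication: singlicate, one well per compound / Signal: luminescence of leftover ATP / Schedule: 2 h aminoacylation at 25 °C after 15 min preincubation / Medium: HEPES-MgCl2-KCl buffer plus DTT, spermine, BSA, pyrophosphatase / Doses: 11.9 µM single point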
Yeast UUG start = modulators of yeast start codon fidelity, primary screen, whole organism, S. cerevisiae, single point, plate reader; activity score, % at 18.7 µM; actives 0.13% (n = 350,000); S. cerevisiae UUG-firefly luciferase reporter, luminescence/redox ratio;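 active = replicate mean at a twofold rise or more, about +100% in these data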;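 also: firefly luciferase made from a UUG start codon reports start codon fidelity; reporter light over untreated wells divided by growth signal over untreated wells; some hits fall short of that in this replicate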
Pemphigus Ab inh = human desmoglein-3 autoantibody binding inhibition; DSG3-coupled beads, scFv-anti-DSG3-GFP binding, flow cytometry; active compounds read low; binding (percent of control), % at 10 µM; 310,000 tested, 0.48% active; AID 588358;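 active = binding more than 3 SD below its plate's average and above zero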;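 also: hits lower antibody fragment binding to DSG3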
Arrestin-AP2 inh = blocks beta-arrestin peptide binding to AP2 adaptin. FITC-arrestin peptide / GST-AP2 beads, flow cytometry; AP2 beta2 appendage carries R879A mutation. inhibition, % at 10 µM. 340,000 tested, 0.31% active. AID 504490;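 active = inhibition above a set limit, near 3 SD of compounds lacking own fluorescence, cut at about 54% in these data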;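 also: plate controls were DMSO wells for no effect and 5 µM unlabelled arrestin peptide for full effect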
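System: GST-AP2 R879A glutathione beads. Medium: PBS with 0.05% Tween 20 and 0.1% BSA. Also added: FITC-arrestin peptide, 50 nM. Incubation: 12 min plus 1 h, RT. Measured by: high-throughput flow cytometry of beads, ex 488, em 535 nm. Evaluation: percent drop in bead-associated FITC signal.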
An asterisk follows results filed as active. Most compounds without a hit are left out; they make up all but 1.2% or so of the library.

What do the screens show for `Cc1ccc2nc(SCc3ccc([N+](=O)[O-])cc3)nc(C)c2c1`?
Rce1 inhib: inactive; Tb MetRS inh: 0; Yeast UUG start: -13; Pemphigus Ab inh: 96; Arrestin-AP2 inh: 1

What do the screens show for `CO[C@@H]1CN(C)C(=O)c2cc(NC(=O)C3CC3)ccc2OC[C@H](C)N(CC2CCCC2)C[C@H]1C`?
Yeast UUG start: -8

What do the screens show for `C[C@H](CO)N1C[C@H](C)[C@@H](CN(C)C(=O)NC2CCCCC2)Oc2c(NC(=O)c3nc4ccccc4s3)cccc2C1=O`?
Yeast UUG start: 4

How did C=CCNC(=O)CCC(=O)NNc1nc2ccccc2c2nc(-c3ccccc3)nn12 do in these assays?
Rce1 inhib: inactive; Tb MetRS inh: -1; Pemphigus Ab inh: 98; Arrestin-AP2 inh: -1

Results for C=CCSc1nc2ccccc2c2nc(-c3ccccc3)nn12 ?
Rce1 inhib: inactive; Tb MetRS inh: -2; Pemphigus Ab inh: 2.7*; Arrestin-AP2 inh: 0

How did COC(C/C=C/[C@@H](O)[C@H](C)OCc1ccccc1)OC do in these assays?
Rce1 inhib: active; Tb MetRS inh: 0; Yeast UUG start: -12; Pemphigus Ab inh: 107; Arrestin-AP2 inh: 16

What do the screens show for `COC(C/C=C\C(=O)COCc1ccccc1)OC`?
Rce1 inhib: inactive

How did COC(C/C=C/C(=O)[C@H](C)OCc1ccccc1)OC do in these assays?
Rce1 inhib: active; Tb MetRS inh: 0; Yeast UUG start: -12; Pemphigus Ab inh: 108; Arrestin-AP2 inh: 6

Results for COC(C/C=C/[C@H](O)[C@@H](C)OCc1ccccc1)OC ?
Rce1 inhib: active; Tb MetRS inh: 0; Yeast UUG start: -15; Pemphigus Ab inh: 99; Arrestin-AP2 inh: -2

Results for COC(C[C@H](O)C[C@H](O)[C@@H](C)OCc1ccccc1)OC ?
Rce1 inhib: active; Tb MetRS inh: 0; Yeast UUG start: -8; Pemphigus Ab inh: 103; Arrestin-AP2 inh: 3

How did C[C@@H]1CCCCO[C@H](CN(C)C(=O)Nc2ccc3c(c2)OCO3)[C@H](C)CN([C@H](C)CO)C(=O)c2cc(NC(=O)c3ccncc3)ccc2O1 do in these assays?
Yeast UUG start: 3

What do the screens show for `COC(C/C=C/[C@H](O)[C@H](C)OCc1ccccc1)OC`?
Rce1 inhib: active; Tb MetRS inh: 0; Yeast UUG start: 2; Pemphigus Ab inh: 106; Arrestin-AP2 inh: -6

What do the screens show for `COC(C/C=C\[C@H](O)[C@@H](C)OCc1ccccc1)OC`?
Rce1 inhib: inactive; Tb MetRS inh: 0; Yeast UUG start: -10; Pemphigus Ab inh: 104; Arrestin-AP2 inh: 2

Results for C[C@H]1CCCCO[C@@H](CN(C)C(=O)Nc2ccccc2)[C@@H](C)CN([C@@H](C)CO)C(=O)c2cc(NS(C)(=O)=O)ccc2O1 ?
Yeast UUG start: 32

Results for Cc1ccc(Cl)cc1N1CCN(C(=O)Cc2c(C(=O)O)[nH]c3ccc(Cl)cc23)CC1 ?
Rce1 inhib: inactive; Tb MetRS inh: 1; Pemphigus Ab inh: 23*; Arrestin-AP2 inh: 0

What do the screens show for `Cc1ccc(Cl)cc1N1CCN(C(=O)Cc2c(C(=O)O)[nH]c3ccccc23)CC1`?
Rce1 inhib: inactive; Tb MetRS inh: 0; Yeast UUG start: -6; Pemphigus Ab inh: 103; Arrestin-AP2 inh: -1

How did C[C@@H]1CCCCO[C@@H](CN(C)C(=O)c2ccncc2)[C@@H](C)CN([C@H](C)CO)C(=O)c2cc(NS(C)(=O)=O)ccc2O1 do in these assays?
Yeast UUG start: -20

What do the screens show for `O=C(C[C@@H]1CC[C@H]2[C@@H](COC[C@@H](O)CN2Cc2cccc(Cl)c2)O1)NCc1cccc(F)c1`?
Yeast UUG start: 10

How did O=C(COc1ncnc2cc([N+](=O)[O-])ccc12)NC(=O)NC1CCCCC1 do in these assays?
Rce1 inhib: active; Tb MetRS inh: 0; Yeast UUG start: 7; Pemphigus Ab inh: 99; Arrestin-AP2 inh: 5

Results for O=C(COc1ncnc2cc([N+](=O)[O-])ccc12)NCCc1ccc(Cl)cc1 ?
Rce1 inhib: inactive; Tb MetRS inh: 1; Pemphigus Ab inh: 99; Arrestin-AP2 inh: 12

How did Cc1ccc(NC(=O)/C(=C\c2ccc([N+](=O)[O-])cc2)NC(=O)c2ccccc2)cc1 do in these assays?
Rce1 inhib: inactive; Tb MetRS inh: 0; Yeast UUG start: -9; Pemphigus Ab inh: 99; Arrestin-AP2 inh: -3

What do the screens show for `O=C(N/N=C/c1ccc(O)c(O)c1O)/C(=C/c1ccc([N+](=O)[O-])cc1)NC(=O)c1ccccc1`?
Rce1 inhib: inactive; Tb MetRS inh: 12*; Yeast UUG start: -25; Pemphigus Ab inh: 91; Arrestin-AP2 inh: 30

Results for COc1ccccc1C1=NN(C2=NN=C(N)Cc3ncnn32)C(O)(C(F)(F)F)C1 (stereo not given) ?
Rce1 inhib: active; Tb MetRS inh: -1; Pemphigus Ab inh: 103; Arrestin-AP2 inh: 27

How did C[C@@H]1CN([C@@H](C)CO)C(=O)c2cc(-c3cccnc3)cnc2O[C@H]1CN(C)C(=O)C1CCC1 do in these assays?
Yeast UUG start: -6

Structures above containing an NH in an aromatic ring (2):
Results for Cc1ccc(Cl)cc1N1CCN(C(=O)Cc2c(C(=O)O)[nH]c3ccc(Cl)cc23)CC1 ?
Rce1 inhib: inactive; Tb MetRS inh: 1; Pemphigus Ab inh: 23*; Arrestin-AP2 inh: 0

What do the screens show for `Cc1ccc(Cl)cc1N1CCN(C(=O)Cc2c(C(=O)O)[nH]c3ccccc23)CC1`?
Rce1 inhib: inactive; Tb MetRS inh: 0; Yeast UUG start: -6; Pemphigus Ab inh: 103; Arrestin-AP2 inh: -1

The listing picks up, repeating the 2 entries before the break.
Results for COc1ccccc1C1=NN(C2=NN=C(N)Cc3ncnn32)C(O)(C(F)(F)F)C1 (stereo not given) ?
Rce1 inhib: active; Tb MetRS inh: -1; Pemphigus Ab inh: 103; Arrestin-AP2 inh: 27

How did C[C@@H]1CN([C@@H](C)CO)C(=O)c2cc(-c3cccnc3)cnc2O[C@H]1CN(C)C(=O)C1CCC1 do in these assays?
Yeast UUG start: -6

What do the screens show for `Cc1cc(=O)oc(C)c1C(=O)OCC(=O)c1ccc(Cl)c(Cl)c1`?
Rce1 inhib: inactive; Tb MetRS inh: -1; Yeast UUG start: -9; Pemphigus Ab inh: 82*; Arrestin-AP2 inh: 15

What do the screens show for `COc1ccc(-c2cnc3c(c2)C(=O)N([C@@H](C)CO)C[C@@H](C)[C@H](CN(C)C(=O)Cc2ccccn2)O3)cc1`?
Yeast UUG start: -6

How did COCCN(CC(=O)Nc1cccc(C)c1)S(=O)(=O)c1ccc(S(=O)(=O)N2CCCC2)cc1 do in these assays?
Rce1 inhib: inactive; Tb MetRS inh: 0; Yeast UUG start: 17; Pemphigus Ab inh: -25*; Arrestin-AP2 inh: -1

How did CCOc1ccc(OCc2ccc(C(=O)OCc3ccccn3)o2)cc1 do in these assays?
Rce1 inhib: inactive; Tb MetRS inh: -1; Yeast UUG start: -16; Pemphigus Ab inh: 40*; Arrestin-AP2 inh: -8

How did CCOC(=O)c1ccc(COc2ccc(C(C)C)cc2)o1 do in these assays?
Rce1 inhib: inactive; Tb MetRS inh: 0; Pemphigus Ab inh: 116; Arrestin-AP2 inh: -4

How did CCCNC(=O)C[C@@H]1CC[C@H]2[C@@H](COc3ccc(NC(=O)c4ccc(C(F)(F)F)cc4)cc3C(=O)N2C)O1 do in these assays?
Yeast UUG start: 3

What do the screens show for `CO[C@H]1CN(C)C(=O)c2cc(NS(=O)(=O)c3cccc(C)c3)ccc2OC[C@@H](C)NC[C@H]1C`?
Yeast UUG start: -2

What do the screens show for `C[C@@H]1CCCCO[C@H](CN(C)S(=O)(=O)c2ccccc2)[C@@H](C)CN([C@@H](C)CO)C(=O)c2cc(NC(=O)c3ccccc3)ccc2O1`?
Yeast UUG start: 13

What do the screens show for `CSc1sc(C(=O)NCC2CC2)c2c1S(=O)(=O)N(C)c1ccccc1-2`?
Rce1 inhib: inactive; Tb MetRS inh: 0; Pemphigus Ab inh: 93*; Arrestin-AP2 inh: -20

Screening results (PubChem)
